The values that follow come from patent US4209588A, “Process for producing new antitumor anthracycline antibiotics” (Zaidan Hojin Biseibutsu Kagaku Kenkyu Kai, priority 1976, dated 1980).

One data set relates to mouse leukemia L1210. The experiment in a line: Therapeutic effectiveness against mouse leukemia L1210 (survival time). Particulars: L1210, ip, 720 h, read-out: Prolongation of the survival time (% T/C).
The next data set can be described thus: Solubility. Particulars: stated by reference to MA 144-G1.
The subject of data set [1] is DNA synthesis in L1210 cells. The experiment in a line: DNA synthesis in cultured L1210 cells (14C incorporation). Particulars: Mus musculus, L1210, 1 h, read-out: % Inhibition, Synthesis of DNA.
Data set [2] concerns RNA synthesis in L1210 cells. The experiment in a line: RNA synthesis in cultured L1210 cells (14C incorporation). Particulars: Mus musculus, L1210, 1 h, read-out: % Inhibition, Synthesis of RNA.

Take `CC[C@@]1(O)C[C@H](O[C@H]2C[C@H](N(C)C)[C@H](O[C@H]3C[C@H](O)[C@H](OC4CCC(=O)C(C)O4)[C@H](C)O3)[C@H](C)O2)c2c(cc3c(c2O)C(=O)c2c(O)cccc2C3=O)[C@H]1C(=O)OC` (stereo partly drawn) [D-cinerulosyl-2-deoxy-L-fucosyl-L-rhodosaminyl-alkavinone]: in the data set on mouse leukemia L1210, the response vs control in vivo at 0.15 mg/kg was 101%, the response vs control in vivo at 0.3 mg/kg worked out at 118%, the response vs control in vivo at 0.6 mg/kg came out at 130% and the response vs control in vivo at 1.25 mg/kg is 145%. Further, in the data set on mouse leukemia L1210, the response vs control in vivo at 2.5 mg/kg worked out at 215% and the response vs control in vivo at 5 mg/kg was 187%.

For `CC[C@@]1(O)C[C@H](O[C@H]2C[C@H](N(C)C)[C@H](O[C@H]3C[C@H](O)[C@H](OC4CCC(=O)C(C)O4)[C@H](C)O3)[C@H](C)O2)c2c(cc3c(c2O)C(=O)c2c(O)ccc(O)c2C3=O)[C@H]1C(=O)OC` (stereo partly drawn) [D-cinerulosyl-2-deoxy-L-fucosyl-L-rhodosaminyl-ε-pyrromycinone], in the data set on mouse leukemia L1210, the response vs control in vivo at 0.15 mg/kg is 97%, the response vs control in vivo at 0.3 mg/kg is 108%, the response vs control in vivo at 0.6 mg/kg is 140% and the response vs control in vivo at 1.25 mg/kg was 164%. Moreover, in the data set with mouse leukemia L1210, the response vs control in vivo at 2.5 mg/kg was determined as 130% and the response vs control in vivo at 5 mg/kg amounted to 90%.

For orientation: inhibition means the drop in the measured response relative to a control, in per cent. For `CC[C@@]1(O)C[C@H](O[C@H]2C[C@H](NC)[C@H](O[C@H]3C[C@H](O)[C@H](O[C@H]4CCC(=O)[C@H](C)O4)[C@H](C)O3)[C@H](C)O2)c2c(cc3c(c2O)C(=O)c2c(O)cccc2C3=O)[C@H]1C(=O)OC` [MA 144-L], the Solubility entry in the data set “Solubility” is reported as “Same as MA 144-G1”. The inhibition at 1 µg/mL in data set [1] is 11.3%. Further, the inhibition at 0.5 µg/mL in data set [2] came out at 39.7%.

For `CC[C@@]1(O)C[C@H](O[C@H]2C[C@H](N(C)C)[C@H](O[C@H]3C[C@H](O)[C@H](O[C@H]4CC[C@H](O)[C@H](C)O4)[C@H](C)O3)[C@H](C)O2)c2c(cc3c(c2O)C(=O)c2c(O)cccc2C3=O)[C@H]1C(=O)OC` [MA 144-N1], the Solubility entry in the data set “Solubility” is recorded as “Same as MA 144-G1”. In data set [1], the inhibition at 1 µg/mL was found to be 57.4%. Further, the inhibition at 0.5 µg/mL in data set [2] is 74.4%.

As for `CC[C@@]1(O)C[C@H](O[C@H]2C[C@H](N(C)C)[C@H](O[C@H]3C[C@H](O)[C@H](O)[C@H](C)O3)[C@H](C)O2)c2c(cc3c(c2O)C(=O)c2c(O)cccc2C3=O)[C@H]1C(=O)OC` [MA 144-S1, 2-deoxy-L-fucosyl-L-rhodosaminyl-aklavinone], in “Solubility”, the Solubility result was “Same as MA 144-G1”.

As for `CC[C@@]1(O)C[C@H](O[C@H]2C[C@H](N(C)C)[C@H](O[C@H]3C[C@H](O)[C@H](O)[C@H](C)O3)[C@H](C)O2)c2c(cc3c(c2O)C(=O)c2c(O)ccc(O)c2C3=O)[C@H]1C(=O)OC` [MA 144-S2], in “Solubility”, the Solubility result was “Same as MA 144-G1”.

For `CC[C@@]1(O)C[C@H](O[C@H]2C[C@H](N(C)C)[C@H](O[C@H]3C[C@H](O)[C@H](O[C@H]4C[C@H](O)[C@H](O)[C@H](C)O4)[C@H](C)O3)[C@H](C)O2)c2c(cc3c(c2O)C(=O)c2c(O)cccc2C3=O)[C@H]1C(=O)OC` [MA 144-U1], the Solubility result in the data set “Solubility” is “Same as MA 144-G1”.

For `CC[C@@]1(O)C[C@H](O[C@H]2C[C@H](N(C)C)[C@H](O[C@H]3C[C@H](O)[C@H](O[C@H]4C[C@H](O)[C@H](O)[C@H](C)O4)[C@H](C)O3)[C@H](C)O2)c2c(cc3c(c2O)C(=O)c2c(O)ccc(O)c2C3=O)[C@H]1C(=O)OC` [MA 144-U2], in the data set with mouse leukemia L1210, the response vs control in vivo at 0.15 mg/kg came out at 110%, the response vs control in vivo at 0.6 mg/kg amounted to 135% and the response vs control in vivo at 1.25 mg/kg amounted to 112%.

For the molecule `CC[C@@]1(O)C[C@H](O[C@H]2C[C@H](N(C)C)[C@H](O[C@H]3C[C@H](O)[C@H](O[C@H]4C=CC(=O)[C@H](C)O4)[C@H](C)O3)[C@H](C)O2)c2c(cc3c(c2O)C(=O)c2c(O)cccc2C3=O)[C@H]1C(=O)OC` [MA 144-Y], the Solubility result in the data set “Solubility” was “Same as MA 144-G1”. The response vs control in vivo at 20 mg/kg with mouse leukemia L1210 came out at 65%.
